# Binding of CDR-mutated scFvs to a peptide of the spike HR2 region

Antigen: PDVDLGDISGINAS, a 14-residue peptide of the SARS-CoV-2 spike HR2 region.

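The variants were designed computationally from a first round of random CDR variants and then made and measured. Group labels follow the data file (Ctrl: baseline library sampled from a position-specific scoring matrix, with some repeated check sequences; En: ensemble of fine-tuned language models; HC: hill climbing; Gen: genetic algorithm; Gibbs: Gibbs sampling; a sequence that several methods proposed may carry one label only). In AlphaSeq, yeast of one mating type display the scFv and yeast of the other type display the target. Pairs that bind mate more often; barcode pairs of the diploids are counted by sequencing. Each replicate has its own calibration line, from reference interactions of the BCL2 family. Mating was done six times.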

Parent scFv Ab-14: VH joined to VL by a (GGGGS)3 linker. Changes lie in the heavy chain CDRs alone.
VH: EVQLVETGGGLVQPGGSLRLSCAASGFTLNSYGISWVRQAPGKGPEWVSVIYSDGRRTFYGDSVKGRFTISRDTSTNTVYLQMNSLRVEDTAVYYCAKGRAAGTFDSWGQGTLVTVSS
VL: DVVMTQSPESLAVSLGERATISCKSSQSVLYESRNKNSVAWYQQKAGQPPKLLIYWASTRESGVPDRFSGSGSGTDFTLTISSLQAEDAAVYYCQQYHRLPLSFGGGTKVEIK

Variants are written as CDR1, CDR2 and CDR3 of the heavy chain (limits as in the source). Parent: GFTLNSYGIS, VIYSDGRRTFYGDSVK, GRAAGTFDS. This list holds designs with more than six substitutions. The read-out is the apparent dissociation constant on a log10 scale (nM): the lower, the stronger. Averages over replicates are reported, and they cover detected replicates only. "nd" means that the variant was in the library but no mating with the target was seen in that replicate; the authors take this as a sign of poor binding, and no number exists. Empty control strains, which show no peptide, gave a signal in 1% of pairings with all heavy chain designs; the median was 2.08 and 95% of these signals were weaker than 0.84. No background was subtracted.

CDR-H1,CDR-H2,CDR-H3,group,"log10 Kd, replicates","mean, log10 nM"
GFDLEDYGIS,VIYADGRRTAYIDSVK,GENAGTFDV,En_HC,-0.58 0.46 -0.83 -0.73 -1.09 -0.33,-0.52
GFDLNEYGIS,VIYADGMRTAYADDVK,GNTAGTFDL,En_Gen,-0.60 -0.26 -0.87 -1.23 0.11 -0.99,-0.64
GFSLGEYGIS,VIYADGERTNYVSNFK,GVHAGTFDL,En_Gibbs,nd nd nd nd nd nd,nd
GFDLNEYGVS,VIYADGHRAQYTEDVK,GTNSGAVDM,En_Gibbs,nd nd nd nd nd nd,nd
GFDLNEYGIS,VIYADGRRTAYTDSVK,GNVAGTFDT,En_Gen,1.36 2.10 0.80 1.63 1.52 2.23,1.61
GFDLNEYGIS,VIYADGSRKFYADKVK,GENAGTFDV,En_HC,-0.21 -0.15 -0.52 -1.05 -0.95 -0.29,-0.53
GFDLEEYGVS,VIYADGIRFAYAQDFK,GQAAGAFDL,En_Gibbs,nd nd nd nd nd nd,nd
GFDLNEYGIS,VIYADGRRTFYADSVK,GKNAGTIFV,En_HC,1.47 2.11 1.18 1.60 1.83 1.57,1.63
EFDLQEFGIS,VIYADGKREAYKDDFK,GQVAGTFDE,En_Gibbs,nd nd nd nd nd nd,nd
GFDLEEYGIS,VIYADGRRTAYADSVK,GNVAGTFDI,En_Gen,-0.36 -0.56 -0.62 -0.73 -0.33 -0.42,-0.50
GFDLEEYGIS,VIYADGKRSQYTDAVK,GKFLVMMTY,En_Gibbs,nd nd nd nd nd nd,nd
GFDLNEYGIS,VIYADGQRTAYADNVK,GETAGTFDV,En_Gen,-0.14 1.67 0.07 0.74 0.76 0.26,0.56
GFDLMEYGIS,VIYADGTRTMYTDKVK,GWFGDTGKT,En_Gibbs,nd nd nd nd nd nd,nd
GFDLNEYGIS,VIYADGRRTAYIDSVK,GHAAGTFDL,En_HC,0.12 -0.19 -0.16 -0.07 -0.22 0.04,-0.08
GFDIQDLGIS,VIYADGLRTAYSDGFK,GIIAGTFNI,En_Gibbs,0.25 -0.40 0.43 -0.41 -0.21 0.24,-0.02
GFDLEEYGIS,VIYADGMRTFYADKVK,GENAGTFDI,En_HC,-0.16 0.14 -0.13 0.04 -0.14 -0.02,-0.05
GFDLNEYGIS,VIYADGMRTVYADSVK,GQVAGTFDV,En_Gen,-0.62 -0.84 -1.16 -1.33 -1.06 -0.44,-0.91
GFDLNEYGIS,VIYADGLRTQYIDSVK,GEAAGTFDL,En_HC,0.11 0.40 -0.14 0.01 0.59 0.53,0.25
GKHLDEYGIS,VIYADGQRVAYSETVK,GIQGVNVDV,En_Gibbs,1.52 1.22 1.95 1.69 0.80 0.18,1.23
GFGIGEYGIS,VIYADGRRTFYSDDVK,GNMIVNGVD,En_Gibbs,1.27 0.86 0.87 0.62 0.48 0.92,0.84
GFDLNEYGIS,VIYADGMRTAYIDSVK,GEAAGTFDV,En_HC,-0.17 0.12 -0.16 0.42 -0.55 -0.12,-0.08
GFDLNEYGIS,VIYADGSRTAYTDSVK,GENAGTFDI,En_Gen,-0.46 nd -1.04 -1.48 0.25 -0.84,-0.71
GFDLEKYGIS,VIYADGIRKEYDQSVK,GQMAGAFTV,En_Gibbs,nd nd 1.92 nd nd nd,1.92
GFDLDEYGIS,VIYADGKRTYYADSVK,GEVAGTFDV,En_Gen,-0.07 -0.32 -0.31 -0.48 -0.57 -0.05,-0.30
GFSIDEYGIS,VIYADGTRTAVATSVK,GQLAAYFDK,En_Gibbs,nd nd nd nd nd nd,nd
GFDLNEYGIS,VIYADGMRTAYSDSVK,GNVAGTFDL,En_Gen,-0.17 -0.20 -0.47 0.11 -0.73 0.00,-0.24
GFDLNEYGIS,VIYADGQRTAYVDSVK,GNVAGTFDM,En_Gen,-0.18 -0.59 -0.53 -0.66 -0.65 -0.24,-0.48
GFDLNEYGIS,VIYADGVRTFYADSVK,GQNAGTFDL,En_HC,-0.64 -1.21 -1.28 -0.93 -0.85 -0.57,-0.91
GFNLNEYGIS,VMYADGSRRVYQDKVK,GFQSGTFDT,En_Gibbs,1.23 0.87 0.75 2.14 1.27 2.12,1.40
GNNLDEYGIS,VIYADGQRTYYAEDVK,GKTGDTAFI,En_Gibbs,nd nd nd nd nd nd,nd
GDNLDEYGIS,VIYADGFRSHYAEKVK,GQQGGFFIK,En_Gibbs,nd nd nd nd nd nd,nd
GIDMQEYGIS,VIYADGLRTAYSDNFK,GVLGGTFDM,En_Gibbs,0.34 0.01 0.70 0.46 0.45 0.75,0.45
GQQLDEYGIS,VIYADGVRSSYVDSVK,GEITGTFSE,En_Gibbs,nd nd nd nd nd nd,nd
GFGLDEYGIS,VIYADGRRTFYADSVK,GENAGTFSM,En_HC,-0.13 -0.02 -0.21 -0.57 -0.26 -0.26,-0.24
GFDLNEYGIS,VIYADGMRTYYADSVK,GANAGTFDI,En_Gen,0.13 2.71 0.63 -0.60 0.33 0.56,0.63
GFDLNEYGIS,VIYADGMRTFYVDSVK,GQVAGTFNV,En_HC,-0.16 -0.86 -0.26 -0.73 -0.81 -0.33,-0.52
GFDLNEYGIS,VIYADGKRTFYTDNVK,GQNAGTFDV,En_HC,-0.98 -0.99 -1.05 -1.09 -1.37 -0.93,-1.07
GFDLDQYGIS,VIYADGMRSVYADAVK,GHEGGIFLV,En_Gibbs,nd nd nd nd nd nd,nd
GFDLNEYGIS,VIYADGMRTAYSDSVK,GQNAGTFDT,En_Gen,-0.52 -0.30 -0.68 -0.39 0.18 -0.77,-0.41
GFQLNSYGIS,KIYSDGLRTAYGDSFK,GRNAKTFDS,Ctrl,nd nd nd nd nd nd,nd
GFNINDYGIS,VIYSDGRRTFYGDSVK,CAFAGRFFS,Ctrl,nd nd nd nd nd nd,nd

Top 6 of the variants detected in all replicates, tightest first:

{"CDR-H1": "GFDLNEYGIS", "CDR-H2": "VIYADGKRTFYTDNVK", "CDR-H3": "GQNAGTFDV", "group": "En_HC", "log10 Kd, replicates": "-0.98 -0.99 -1.05 -1.09 -1.37 -0.93", "mean, log10 nM": "-1.07"}
{"CDR-H1": "GFDLNEYGIS", "CDR-H2": "VIYADGVRTFYADSVK", "CDR-H3": "GQNAGTFDL", "group": "En_HC", "log10 Kd, replicates": "-0.64 -1.21 -1.28 -0.93 -0.85 -0.57", "mean, log10 nM": "-0.91"}
{"CDR-H1": "GFDLNEYGIS", "CDR-H2": "VIYADGMRTVYADSVK", "CDR-H3": "GQVAGTFDV", "group": "En_Gen", "log10 Kd, replicates": "-0.62 -0.84 -1.16 -1.33 -1.06 -0.44", "mean, log10 nM": "-0.91"}
{"CDR-H1": "GFDLNEYGIS", "CDR-H2": "VIYADGMRTAYADDVK", "CDR-H3": "GNTAGTFDL", "group": "En_Gen", "log10 Kd, replicates": "-0.60 -0.26 -0.87 -1.23 0.11 -0.99", "mean, log10 nM": "-0.64"}
{"CDR-H1": "GFDLNEYGIS", "CDR-H2": "VIYADGSRKFYADKVK", "CDR-H3": "GENAGTFDV", "group": "En_HC", "log10 Kd, replicates": "-0.21 -0.15 -0.52 -1.05 -0.95 -0.29", "mean, log10 nM": "-0.53"}
{"CDR-H1": "GFDLNEYGIS", "CDR-H2": "VIYADGMRTFYVDSVK", "CDR-H3": "GQVAGTFNV", "group": "En_HC", "log10 Kd, replicates": "-0.16 -0.86 -0.26 -0.73 -0.81 -0.33", "mean, log10 nM": "-0.52"}

Values of this round are not directly comparable with the first-round values of the same sequences. In the paper, a design with two or fewer of six values counts as a poor binder.

Reference: Li et al. 2023, doi:10.1038/s41467-023-39022-2. File: FLAb, binding data.